Measured values reported in patent publication US9901560B2, “Methods and compositions for treatment of acute lung injury” (dated 2018).

Test system: chlorine-induced ALI
Experiment: Chlorine gas-induced ALI model in ventilated pigs
Settings: compared with vehicle-treated pigs, average 12-24 hours post exposure

`CC(=N)NCCSCC[C@H](N)C(=O)O` was tested, and the “decrease in the Alveolar-arterial (A-a) O2 gradient” value (200 mg intramuscular 1 hour after 240 ppm chlorine for 1 hour, FIG. 1) was 55%, the “increase in ratio of arterial oxygen partial pressure to fractional inspired oxygen (PaO2/FiO2 ratio)” value (200 mg intramuscular 1 hour after chlorine, FIG. 2) was 41% and the “decrease in Oxygenation index” value (200 mg intramuscular 1 hour after chlorine, FIG. 3) was 60%. The “decrease in Airway Resistance” value (200 mg intramuscular 1 hour after chlorine, FIG. 4) was 69%, the “decrease in Peak Inspiratory Pressures” value (200 mg intramuscular 1 hour after chlorine, FIG. 5) was 42% and the “increase in Lung Dynamic Compliance” value (200 mg intramuscular 1 hour after chlorine, FIG. 6) was 33%. The “decrease in O2 Saturation drop” value (200 mg intramuscular 1 hour after chlorine, FIG. 7) was 49% and the “decrease in Mean Airway Pressure” value (200 mg intramuscular 1 hour after chlorine, FIG. 8) was 57%.
